The record followed here is patent publication US20020037514A1, “Identification of nuclear receptor-dependent coregulator recruitment” (priority 2000, published 2002).

The target of test [1] is T1, RXRβ (UniProt P28704).
T1 sequence (P28704 111-520 limits assumed): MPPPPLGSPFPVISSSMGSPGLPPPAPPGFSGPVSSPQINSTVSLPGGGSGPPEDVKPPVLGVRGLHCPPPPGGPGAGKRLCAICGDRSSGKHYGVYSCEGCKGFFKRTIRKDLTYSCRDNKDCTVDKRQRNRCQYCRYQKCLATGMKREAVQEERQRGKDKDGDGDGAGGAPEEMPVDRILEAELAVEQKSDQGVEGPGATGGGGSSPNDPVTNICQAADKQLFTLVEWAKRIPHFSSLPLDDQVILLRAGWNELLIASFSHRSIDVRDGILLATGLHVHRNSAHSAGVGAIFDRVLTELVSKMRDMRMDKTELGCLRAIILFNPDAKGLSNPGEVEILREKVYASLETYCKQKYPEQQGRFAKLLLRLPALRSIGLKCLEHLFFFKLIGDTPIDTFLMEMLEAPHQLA
The settings on record: read-out: RXRβ EC50; CV-1 cells, RXR homodimers, mean ± standard deviation.

Test [2] addresses T2, RXRβ (Mus musculus, UniProt P28704).
T2 sequence (P28704 1-520): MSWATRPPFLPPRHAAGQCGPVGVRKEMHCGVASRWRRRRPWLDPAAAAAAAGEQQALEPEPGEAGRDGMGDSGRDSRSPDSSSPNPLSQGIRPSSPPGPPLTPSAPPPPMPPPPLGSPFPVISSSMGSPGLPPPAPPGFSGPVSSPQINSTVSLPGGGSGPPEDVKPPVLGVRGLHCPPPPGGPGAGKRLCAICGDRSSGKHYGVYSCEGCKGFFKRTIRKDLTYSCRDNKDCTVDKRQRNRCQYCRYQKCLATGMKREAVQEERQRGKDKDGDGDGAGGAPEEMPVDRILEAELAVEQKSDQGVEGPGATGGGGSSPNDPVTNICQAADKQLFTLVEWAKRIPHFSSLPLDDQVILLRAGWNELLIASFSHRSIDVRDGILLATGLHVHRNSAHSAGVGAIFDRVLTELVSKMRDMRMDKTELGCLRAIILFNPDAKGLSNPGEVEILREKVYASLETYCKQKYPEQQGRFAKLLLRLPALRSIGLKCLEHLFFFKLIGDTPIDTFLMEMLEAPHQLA
Description: biochemical.

Usually pEC50 stands for the negative decadic logarithm of the EC50, by convention in mol/L. By pKi is commonly meant the negative decadic logarithm of the Ki, by convention in mol/L. Lower therefore signals a high Ki.

pEC50, pKi: −log10 of the molar value.

Take `CC(/C=C/C1CC1(C)c1ccc2c(c1)C(C)(C)CCC2(C)C)=C\C(=O)O` (centres unmarked): on RXRβ [1], the pEC50 is 10.15. Moreover, at RXRβ [2], the pKi is 9.40.
